# AlphaSeq binding of Ab-14 light chain variants to a spike HR2 peptide

Values reported by Li et al. 2023, doi:10.1038/s41467-023-39022-2 (FLAb copy).

Binding partner: SARS-CoV-2 spike HR2 peptide, sequence PDVDLGDISGINAS.

Each scFv is VH, a 15-residue (Gly4Ser)3 linker, VL, as in the parent Ab-14, and differs from it in the CDRs of the light chain only.
VH: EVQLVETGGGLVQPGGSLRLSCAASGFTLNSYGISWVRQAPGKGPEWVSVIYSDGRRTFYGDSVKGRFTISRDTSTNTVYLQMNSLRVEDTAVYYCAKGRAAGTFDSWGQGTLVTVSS
VL: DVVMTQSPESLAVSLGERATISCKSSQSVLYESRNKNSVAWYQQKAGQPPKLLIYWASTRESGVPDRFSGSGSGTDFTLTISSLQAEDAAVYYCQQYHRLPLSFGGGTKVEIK

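Phage display of a naive human antibody library on the peptide gave the parent. These sequences belong to a second round, designed from the earlier measurements on random variants of the parent. Several design methods are mixed in this list. Affinity was read by AlphaSeq, a pooled yeast mating assay with surface-displayed partners. Pairs that bind mate more often; barcode pairs of the diploids are counted by sequencing. Each replicate has its own calibration line, from reference interactions of the BCL2 family. The assay was run in six technical replicates.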

Positions count from residue 1 of the parent VL; S25L puts L in place of S. This list holds designs with at most six substitutions. The read-out is the apparent dissociation constant on a log10 scale (nM): the lower, the stronger. Replicates are averaged; those with no signal do not enter the mean. "nd" marks a missing value. The strain was present, yet no cells mated with the target were sequenced in any replicate, which points to weak or no binding. The list is sorted by this average, lowest first, undetected variants last. Nonspecific signal, from three strains lacking the peptide, appeared in 4% of pairings of all light chain designs, centred on 2.64 (5% of these signals below 1.59); values are not corrected for it. For each scFv, signals with the empty controls are counted beside the result. The authors' rule: three or more of the six replicates give a measured affinity, fewer mean a poor binder. A sequence measured in both rounds can read differently, since the two assays cover different ranges.

With S25L/S26P/W56N/T59E the result was -0.45 (6 of 6 replicates; controls 0 of 18).
With K24H/Q27P/K36F/S38N/W56N the result was -0.35 (6 of 6 replicates; controls 1 of 18).
With S25L/W56N/S62V/Q96D the result was -0.30 (6 of 6 replicates; controls 0 of 18).
With S25L/W56E/E61M/S62Q the result was -0.26 (6 of 6 replicates; controls 1 of 18).
With S25I/S28E/Y31M/K36M/W56N/S62E the result was -0.25 (6 of 6 replicates; controls 1 of 18).
With S25L/V29F/W56Q the result was -0.20 (6 of 6 replicates; controls 0 of 18).
With S25L/Q27M/V29E/W56N/S62E the result was -0.16 (6 of 6 replicates; controls 0 of 18).
With S25F/W56E/E61C the result was -0.09 (6 of 6 replicates; controls 2 of 18).
With S25L/S26Q/W56D/E61M the result was -0.07 (6 of 6 replicates; controls 0 of 18).
With S25L/V29Q/W56E/E61C the result was -0.06 (6 of 6 replicates; controls 0 of 18).
With S25V/S26Y/V29N/W56N/T59Q the result was -0.04 (6 of 6 replicates; controls 1 of 18).
With Q27I/V29Y/L30E/W56A the result was -0.04 (6 of 6 replicates; controls 0 of 18).
With S25L/V29E/W56Q/E61M the result was -0.02 (6 of 6 replicates; controls 0 of 18).
With K24I/S25F/N35T/W56N the result was -0.02 (6 of 6 replicates; controls 0 of 18).
With S25L/S26Q/K36W/W56N/E61L the result was -0.02 (6 of 6 replicates; controls 2 of 18).
With S25L/S26Q/W56N/E61C/S62D the result was 0.00 (6 of 6 replicates; controls 2 of 18).
With S25L/E32G/W56N/E61M the result was 0.08 (6 of 6 replicates; controls 0 of 18).
With Y31K/E32D/S33F/W56D the result was 0.27 (6 of 6 replicates; controls 0 of 18).
With S26L/V29M/W56H/S62D/R99Q the result was 0.30 (6 of 6 replicates; controls 0 of 18).
With S25L/V29D/W56E/S62K the result was 0.51 (6 of 6 replicates; controls 0 of 18).
With S25L/S26V/W56N the result was 0.52 (6 of 6 replicates; controls 0 of 18).
With S25V/H98I the result was 0.54 (6 of 6 replicates; controls 1 of 18).
With L30W/K36S/S62D the result was 0.62 (6 of 6 replicates; controls 0 of 18).
With S25R/W56Q/L100M the result was 0.63 (1 of 6 replicates; controls 0 of 18).
With S26Q/S33P/N35G/K36C/W56A the result was 0.63 (6 of 6 replicates; controls 1 of 18).
With S25F/V29D/L30D/S33D/W56N/E61S the result was 0.76 (6 of 6 replicates; controls 0 of 18).
With S25Q/W56M the result was 0.97 (6 of 6 replicates; controls 1 of 18).
With S25L/V29T/E32D/R34Q/E61L/H98K the result was 1.09 (6 of 6 replicates; controls 2 of 18).
With S25N/Y31G/S33Q/W56D the result was 1.14 (5 of 6 replicates; controls 0 of 18).
With L30N/S103M the result was 1.29 (1 of 6 replicates; controls 0 of 18).
With L30A/Y31M/K36A/W56D the result was 1.43 (1 of 6 replicates; controls 0 of 18).
With S25L/S26W/W56N the result was 1.91 (6 of 6 replicates; controls 1 of 18).
With Y31A/E32L/H98A/L100M the result was 2.03 (4 of 6 replicates; controls 1 of 18).
With E32Y/R34L/S38A/W56H/L102Y the result was 2.09 (1 of 6 replicates; controls 0 of 18).
With R34S/A57C/P101I the result was 2.37 (2 of 6 replicates; controls 1 of 18).
With V39I/W56G/T59A the result was 2.63 (5 of 6 replicates; controls 1 of 18).
With S62L/Q95S/R99G/S103K the result was 2.83 (1 of 6 replicates; controls 0 of 18).
With N37Q/T59L the result was 3.57 (1 of 6 replicates; controls 0 of 18).
With S26V/S28K/Y31D/S33D/R34S/K36N the result was nd (0 of 6 replicates; controls 0 of 18).
With S58Y/Y97P the result was nd (0 of 6 replicates; controls 0 of 18).
With S25I/Q27W/W56H/Y97C the result was nd (0 of 6 replicates; controls 0 of 18).

Extract of 3 entries:

With L30W/K36S/S62D the result was 0.62 (6 of 6 replicates; controls 0 of 18).
With S25V/H98I the result was 0.54 (6 of 6 replicates; controls 1 of 18).
With R34S/A57C/P101I the result was 2.37 (2 of 6 replicates; controls 1 of 18).